Consider one compound from patent publication US10314825B2, “Agent for treatment of PBC” (KOWA COMPANY, LTD., priority 2017, dated 2019).

This test has as its system patients with dyslipidemia showing a high level of triglyceride (TG). The test can be described thus: Changes in ALP levels after 12 weeks, clinical trial data (Example 1). The class given is in vivo, human. Particulars: 200 mg/day micronized fenofibrate capsule formulation, 12 weeks vs baseline. On the procedure:
By using data (1965 cases in total) obtained in a clinical trial (8 tests with an administration period of 12 weeks or more) of Compound A, which had been performed for patients with dyslipidemia showing a high level of triglyceride (TG), the effects of Compound A for ALP and total bilirubin were investigated. Compound A was administered at a dose of 0.05 to 0.4 mg per day to Compound A group. Further, placebo or fenofibrate (100 to 200 mg per day) was administered to a control group. Each compound was administered to Compound A group and a control group for 12 weeks, and changes in the levels of ALP before and after the administration are shown in Table 1 and FIG. 1, and changes in the levels of total bilirubin before and after the administration are shown in Table 2 and FIG. 2. Note that comparisons between the groups were investigated by using covariance analysis with baseline levels used as covariates.

As for `CC(C)OC(=O)C(C)(C)Oc1ccc(C(=O)c2ccc(Cl)cc2)cc1` [fenofibrate], the “ALP level, Rate of change (LSmean)” value is −16.9.
